Laboratory results from patent US20240124563A1.

Key:
[1] = molecular target: monkey MSLN full-length protein on HEK293T cells (monkey); assay: FACS, HEK293T-monkey-MSLN cells, antibody 0.8 nM
[2] = molecular target: monkey MSLN full-length protein on HEK293T cells (monkey); assay: FACS, HEK293T-monkey-MSLN cells, antibody 0.16 nM
[3] = molecular target: monkey MSLN full-length protein on HEK293T cells (monkey); assay: FACS, HEK293T-monkey-MSLN cells, antibody 0.032 nM
[4] = molecular target: monkey MSLN full-length protein on HEK293T cells (monkey); assay: FACS, HEK293T-monkey-MSLN cells, antibody […]
[5] = molecular target: monkey MSLN full-length protein on HEK293T cells (monkey); assay: FACS, HEK293T-monkey-MSLN cells, antibody 4 nM
[6] = molecular target: monkey MSLN full-length protein on HEK293T cells (monkey); assay: FACS, HEK293T-monkey-MSLN cells, antibody 0.0064 nM
[7] = molecular target: monkey MSLN full-length protein on HEK293T cells (monkey); assay: FACS, HEK293T-monkey-MSLN cells, antibody 100 nM
[8] = molecular target: monkey MSLN full-length protein on HEK293T cells (monkey); assay: FACS, HEK293T-monkey-MSLN cells, antibody 20 nM

## Tab142 (Amatuximab) (antibody)
[1]
  FACS signal (MFI): 1680
[2]
  FACS signal (MFI): 503
[3]
  FACS signal (MFI): 192
[4]
  FACS signal (MFI): 98
[5]
  FACS signal (MFI): 3610
[6]
  FACS signal (MFI): 115
[7]
  FACS signal (MFI): 3720
[8]
  FACS signal (MFI): 3650
